Data: the NIST ThermoML archive (doi:10.1016/j.fluid.2005.11.026)

Conditions: 313.15 K; Liquid; Closed cell (Static) method

CCCCOCCCC [dibutyl ether]
vapor or sublimation pressure: 2.062 ± 0.022 kPa and 2.079 ± 0.023 kPa and 2.075 ± 0.023 kPa

Where “and” joins values, the source holds several entries; their conditions need not be identical. Equal entries are not always repeated. Numbers after ± are expanded uncertainties.
